From patent EP4094762A1, “TREATMENT OF NEUROLOGICAL INDICATIONS” (UCL Business Ltd, priority 2021, dated 2022) come the findings set out here.

The series can be described thus: CNS penetration: intravenous cassette pharmacokinetic study, brain and plasma by LC-MS/MS. Particulars: mouse, t = 2 hr, 0.4mg/kg intravenous.
Take `O=C(Nc1ccc(OC(F)(F)F)cc1)Nc1cccnc1Oc1ccccc1C1(C(F)(F)F)CC1` [S4, 1-(4-(trifluoromethoxy)phenyl)-3-(2-(2-(1-(trifluoromethyl)cyclopropyl)phenoxy)pyridin-3-yl)urea]: the CNS penetration: total brain to plasma ratio worked out at 0.53.
To `CC(C)(C)c1ccccc1Oc1ncccc1NC(=O)Nc1ccc(C(F)(F)F)s1` [S8, 1-(2-(2-(tert-butyl)phenoxy)pyridin-3-yl)-3-(5-(trifluoromethyl)thiophen-2-yl)urea] belongs 0.75; to `CC(C)(C)c1ccccc1Oc1cccc(O)c1NC(=O)Nc1ccc(OC(F)(F)F)cc1` [S11, 1-(2-(2-(tert-butyl)phenoxy)-6-hydroxyphenyl)-3-(4-(trifluoromethoxy)phenyl)urea], 3.1.
